# Measurements: patent US20040110803A1, “Methods and compositions for the use of D-malic acid to decrease serum triglyceride, cholesterol and lipoprotein levels” (priority 2002, published 2004)
# Counter-ions that a name gives are not always drawn. Like-named read-outs stand apart in the source and are kept apart here.
# How the values were obtained:
# [1] = test system: liver of Zucker fa/fa rat
# [2] = test system: liver mitochondria; settings: oxygen consumption, FIG. 5
# Procedure: To determine the effect of D-malic acid on hepatic mitochondria, mitochondria from the Sprague Dawley rat used for isoenzyme studies were prepared according to the method of Johnson and Lardy (1967). The […] pellet was resuspended in cold sucrose buffer and recentrifuged at 600×g. This supernatant was mixed with the original 600×g supernatant. The 10,000×g mitochondria pellet was suspended in 5 mL of sucrose buffer. […] Consumption of oxygen was represented as percent of oxygen saturation.
"energy status of hepatocytes (ratio of high to low energy nucleotides) vs control ([1]; rat, in vivo)",SMILES,"AT/DMado, ratio of tissue levels of ATP/ADP + AMP + Adenosine ([1]; 12 weeks treatment, ± SEM)",concentration at which metabolism by mitochondria saturates [2] [umole/5 mL],concentration at which metabolism by mitochondria saturates ([2]; converted) [mM]
greater,"O=C(O)CC(O)C(=O)O (racemic) [D,L-malic acid, D,L-malic acid, sodium salt]",1.61 ± .18,–,–
–,"O=C(O)C[C@H](O)C(=O)O [L-malic acid, L-malic acid, sodium salt, reference compound]",–,30,6
